In US20210260008A1, “COMBINATION THERAPY FOR TREATING CANCER” (THE JOHNS HOPKINS UNIVERSITY, priority 2018, published 2021):

Tested on: 2208L breast tumors
Assay: 2208L breast tumor mouse model
Conditions: mice bearing 2208L breast tumors

SMILES: Nc1ncn([C@@H]2O[C@H](CO)[C@@H](O)[C@H]2O)c(=O)n1 [AZA, 4-amino-1-β-D-ribofuranozyl-s-triazin-2(1H)-one]
- survival: no benefit in survival
